# According to patent US20260385988A1, “METHOD FOR SCREENING FOR PROTEINS ASSOCIATED WITH NEURODEGENERATIVE DISEASES AND THERAPEUTIC OR PROPHYLACTIC DRUGS FOR NEURODEGENERATIVE DISEASES” (published 2026):
# The chains behind the UniProt entries cited, without tags or fusion partners. Residues count along the entry.
# UniProt Q92973, whole entry: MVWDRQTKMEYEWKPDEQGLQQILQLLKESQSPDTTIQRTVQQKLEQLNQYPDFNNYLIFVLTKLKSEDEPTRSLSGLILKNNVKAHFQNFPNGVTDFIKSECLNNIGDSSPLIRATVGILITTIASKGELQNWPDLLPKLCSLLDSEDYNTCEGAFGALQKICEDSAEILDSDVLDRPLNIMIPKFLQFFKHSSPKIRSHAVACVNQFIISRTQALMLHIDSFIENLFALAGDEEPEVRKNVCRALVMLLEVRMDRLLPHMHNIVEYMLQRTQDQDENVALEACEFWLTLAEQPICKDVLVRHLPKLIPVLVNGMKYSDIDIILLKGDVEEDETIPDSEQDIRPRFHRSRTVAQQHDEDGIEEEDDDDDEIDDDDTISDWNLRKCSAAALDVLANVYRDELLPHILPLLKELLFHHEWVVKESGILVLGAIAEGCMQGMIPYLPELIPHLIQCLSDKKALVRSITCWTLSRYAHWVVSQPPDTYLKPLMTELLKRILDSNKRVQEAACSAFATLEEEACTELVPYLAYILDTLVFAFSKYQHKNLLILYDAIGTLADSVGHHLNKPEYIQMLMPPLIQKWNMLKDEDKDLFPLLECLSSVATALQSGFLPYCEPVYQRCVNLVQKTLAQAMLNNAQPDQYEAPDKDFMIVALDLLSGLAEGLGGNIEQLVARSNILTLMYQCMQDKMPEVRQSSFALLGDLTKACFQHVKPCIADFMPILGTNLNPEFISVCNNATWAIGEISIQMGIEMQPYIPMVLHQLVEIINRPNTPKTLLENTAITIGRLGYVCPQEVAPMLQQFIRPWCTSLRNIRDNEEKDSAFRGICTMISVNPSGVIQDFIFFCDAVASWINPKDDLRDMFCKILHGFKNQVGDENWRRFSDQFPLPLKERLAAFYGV
# UniProt P35637, whole entry: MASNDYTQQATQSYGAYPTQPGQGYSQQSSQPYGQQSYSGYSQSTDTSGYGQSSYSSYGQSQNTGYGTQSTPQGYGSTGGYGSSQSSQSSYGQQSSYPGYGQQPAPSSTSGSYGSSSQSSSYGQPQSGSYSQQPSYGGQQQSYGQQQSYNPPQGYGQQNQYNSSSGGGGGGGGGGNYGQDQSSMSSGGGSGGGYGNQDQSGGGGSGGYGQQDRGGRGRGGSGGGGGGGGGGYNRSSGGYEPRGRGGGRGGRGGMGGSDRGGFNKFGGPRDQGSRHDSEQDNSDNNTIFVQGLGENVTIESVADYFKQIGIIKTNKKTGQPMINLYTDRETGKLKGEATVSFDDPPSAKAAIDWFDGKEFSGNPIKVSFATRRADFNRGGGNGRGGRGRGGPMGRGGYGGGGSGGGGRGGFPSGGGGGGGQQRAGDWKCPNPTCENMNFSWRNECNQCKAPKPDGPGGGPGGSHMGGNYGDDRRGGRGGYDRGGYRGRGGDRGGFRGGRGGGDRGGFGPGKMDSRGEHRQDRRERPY
# UniProt P02754, 17-178 limits assumed: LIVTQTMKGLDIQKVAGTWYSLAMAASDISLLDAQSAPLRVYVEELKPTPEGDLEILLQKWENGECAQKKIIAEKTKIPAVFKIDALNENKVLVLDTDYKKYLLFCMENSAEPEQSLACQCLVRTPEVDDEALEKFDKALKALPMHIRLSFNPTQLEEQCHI
# Columns and labels:
# [1] = biological target: human karyopherin β2 (Kapβ2) (Homo sapiens, UniProt Q92973); assay: Kapβ2-induced fluorescence changes in dansyl-DPR probes (turn-on response); details: for binding to Kapβ2 (conclusion from fluorescence): 520 nm fluorescence intensity, n=3; for change in fluorescence intensity on addition of Kapβ2: various Kapβ2 concentrations, probe 300 nM, 35 °C, 10 min
# From the text: (§1) MBP-tagged human FUS (Cell, 173(3):693-705.e22 (2018); hereinafter “MBP-FUS”), human karyopherin β2 (Cell, 173(3):693-705.e22 (2018); hereafter referred to as “Kapβ2”), C. elegans importin β family protein (UniProt accession number: A0A131MBF9; hereafter referred to as “Imb-2”), human heteronuclear ribonucleoprotein protein A2 (Cell, 163(4):829-839 (2015); hereafter described as “hnRNPA2LC”), and human peptidyl prolyl cis-trans isomerase A (Cell, 163(4):829-839 (2015); hereafter referred to as “PPIA”) were provided by Professor Tomohide Saio of the Institute for Advanced Enzyme Research, University of Tokushima. Human importin α1 (Cell, 173(3):693-705.e22 (2018); hereinafter described as “Impα”), human importin β1 (Cell, 173(3):693-705.e22 (2018); hereinafter referred to as “Impβ”), GST-tagged M9M peptide (Cell, 173(3):693-705.e22 (2018); hereafter referred to as “GST-M9M”), and human GTP-bound Ran (Q69L) (UniProt accession number: P62826; hereinafter referred to as “RanGTP”) were provided by Assistant Professor Takuya Yoshizawa, Faculty of Life Science, Ritsumeikan University.
# (§2) A buffer solution (20 mM Tris-HCl (pH 7.5), 150 mM NaCl, and 2 mM DTT (final concentration)) was used to prepare the probe solutions (final concentration 300 nM) for probes 1 to 7 above. Each probe solution was added to a 384-well microplate (Corning, 3575) at 30 μL/well using an automated pipetting system (Andrew+, Andrew Alliance). After incubation at 35 °C for 10 min, fluorescence intensity (fluorescence wavelength: 520 nm) and fluorescence spectrum (fluorescence wavelength: 400-700 nm) at an excitation wavelength of 340 nm were measured using a microplate reader (Cytation 5, BioTek). Then, various concentrations of Kapβ2 solution (Kapβ2/pure water) were added to the 384-well microplate at 30 μL/well using an automated pipetting system. After incubation at 35 °C for 10 minutes, fluorescence intensity and fluorescence spectrum were measured under the same conditions as above.
# [2] = biological target: interaction between Dnc-PR20 and Kapβ2 (Homo sapiens, UniProt Q92973); assay: Screening for DPRs-Kapβ2 binding inhibitors: Dnc-PR20/Kapβ2 mixture with additives (turn-off response)
# From the text: as §1
# A buffer solution (20 mM Tris-HCl (pH 7.5), 150 mM NaCl, and 2 mM DTT (final concentration)) was used to prepare a mixture of Dnc-PR20 (final concentration 300 nM) and Kapβ2 (final concentration 400 nM), and an automatic dispensing system (Andrew+, Andrew Alliance) was used to add 20 μL/well of each to a 384-well microplate (Corning, 3820). After incubation at 35 °C for 10 min, the fluorescence intensity (fluorescence wavelength: 520 nm) and fluorescence spectrum (fluorescence wavelength: 400-700 nm) were measured at an excitation wavelength of 340 nm using a microplate reader (Cytation 5, BioTek). Then, 5 μL/well of various concentrations of additives (poly K50 or IgG/pure water) were added using an automated pipetting system, and after incubation at 35 °C for 10 minutes, the fluorescence intensity and fluorescence spectrum were measured under the same conditions. As a control, the Dnc-PR20 solution without Kapβ2 was measured for fluorescence intensity and fluorescence spectrum in the same manner.
# In addition to poly K50 and IgG, the 520 nm fluorescence intensity of Dnc-PR20 was measured with PAMAM, GST-M9M, RanGTP, ATP, and HSA as additives, using the same procedure as in Section 6 above.
# [3] = biological target: MBP-tagged human FUS (MBP-FUS) (Homo sapiens, UniProt P35637); assay: Fluorescence changes in probes due to FUS
# From the text: MBP-tagged human FUS (Cell, 173(3):693-705.e22 (2018); hereinafter “MBP-FUS”), human karyopherin β2 (Cell, 173(3):693-705.e22 (2018); hereafter referred to as “Kapβ2”), C. elegans importin β family protein (UniProt accession number: A0A131MBF9; hereafter referred to as “Imb-2”), human heteronuclear ribonucleoprotein protein A2 (Cell, 163(4):829-839 (2015); hereafter described as “hnRNPA2LC”), and human peptidyl prolyl cis-trans isomerase A (Cell, 163(4):829-839 (2015); hereafter referred to as “PPIA”) were provided by Professor Tomohide Saio of the Institute for Advanced Enzyme Research, University of Tokushima. […]
# A buffer solution (20 mM Tris-HCl (pH 7.5), 150 mM NaCl, and 2 mM DTT (final concentration)) was used to prepare the probe solutions (final concentration 300 nM) for probes 1 to 7 above. […] After incubation at 35 °C for 10 min, fluorescence intensity (fluorescence wavelength: 520 nm) and fluorescence spectrum (fluorescence wavelength: 400-700 nm) at an excitation wavelength of 340 nm were measured using a microplate reader (Cytation 5, BioTek). […] After incubation at 35 °C for 10 minutes, fluorescence intensity and fluorescence spectrum were measured under the same conditions as above. […]
# [4] = biological target: bovine milk-derived β-lactoglobulin (Bos taurus, UniProt P02754); assay: Fluorescence change of probes by various proteins: β-lactoglobulin; details: "any of the proteins", here β-lactoglobulin, 1600 nM
# Experimental: (§3) Bovine milk-derived β-lactoglobulin, human serum-derived α1-antitrypsin, human serum-derived albumin, human serum-derived apotransferrin, and chicken egg white-derived lysozyme were purchased from Sigma-Aldrich. Human serum-derived immunoglobulin G was purchased from Equitech-Bio, Inc.
# as §2, with “as above. […]” for “as above.”
# [5] = test system: human serum-derived α1-antitrypsin, human serum-derived albumin (HSA), human serum-derived apotransferrin, chicken egg white-derived lysozyme, human serum-deriv; assay: Fluorescence change of probes by various proteins: other proteins; details: proteins other than β-lactoglobulin, 1600 nM; excitation 340 nm
# Experimental: as §3
# as §2, with “as above. […]” for “as above.”
molecule,measurement,setting,value
C[C@H](NC(=O)CNC(=O)[C@H](C)NC(=O)CNC(=O)[C@H](C)NC(=O)CNC(=O)[C@H](C)NC(=O)CNC(=O)[C@H](C)NC(=O)CNC(=O)[C@H](C)NC(=O)CNC(=O)[C@H](C)NC(=O)CNC(=O)[C@H](C)NC(=O)CNC(=O)[C@H](C)NC(=O)CNC(=O)[C@H](C)NC(=O)CNS(=O)(=O)c1cccc2c(N(C)C)cccc12)C(=O)O,binding to Kapβ2 (conclusion from fluorescence),[1],do not
same,change in fluorescence intensity on addition of Kapβ2,[1]; excitation 340 nm,unchanged
50-mer polylysine,change in 520 nm fluorescence intensity of Dnc-PR20 with additives,"[2]; FIG. 10, Dnc-PR20/Kapβ2 mixture",attenuated
same,change in fluorescence intensity of Dnc-PR20 on addition of additive,"[2]; additive 0-300 nM, Dnc-PR20 300 nM, Kapβ2 400 nM, 35 °C, 10 min",decreased in a poly K50 concentration-dependent manner
same,fluorescence intensity of Dnc-PR20 compared with control (Dnc-PR20 without Kapβ2),"[2]; additive 200 nM, Dnc-PR20 300 nM, Kapβ2 400 nM",comparable to that of the control
same,inhibition of the interaction between Dnc-PR20 and Kapβ2,"[2]; conclusion from fluorescence, n=3",inhibited the interaction between Dnc-PR20 and Kapβ2
CN(C)c1cccc2c(S(=O)(=O)NCC(=O)N[C@@H](CCCNC(=N)N)C(=O)NCC(=O)N[C@@H](CCCNC(=N)N)C(=O)NCC(=O)N[C@@H](CCCNC(=N)N)C(=O)NCC(=O)N[C@@H](CCCNC(=N)N)C(=O)NCC(=O)N[C@@H](CCCNC(=N)N)C(=O)NCC(=O)N[C@@H](CCCNC(=N)N)C(=O)NCC(=O)N[C@@H](CCCNC(=N)N)C(=O)NCC(=O)N[C@@H](CCCNC(=N)N)C(=O)NCC(=O)N[C@@H](CCCNC(=N)N)C(=O)NCC(=O)N[C@@H](CCCNC(=N)N)C(=O)O)cccc12,binding to Kapβ2 (conclusion from fluorescence),[1],bind Kapβ2
same,change in fluorescence intensity on addition of Kapβ2,[1]; excitation 340 nm,increased in a Kapβ2 concentration-dependent manner
CN(C)c1cccc2c(S(=O)(=O)NCC(=O)N3CCC[C@H]3C(=O)NCC(=O)N3CCC[C@H]3C(=O)NCC(=O)N3CCC[C@H]3C(=O)NCC(=O)N3CCC[C@H]3C(=O)NCC(=O)N3CCC[C@H]3C(=O)NCC(=O)N3CCC[C@H]3C(=O)NCC(=O)N3CCC[C@H]3C(=O)NCC(=O)N3CCC[C@H]3C(=O)NCC(=O)N3CCC[C@H]3C(=O)NCC(=O)N3CCC[C@H]3C(=O)NCC(=O)N3CCC[C@H]3C(=O)NCC(=O)N3CCC[C@H]3C(=O)NCC(=O)N3CCC[C@H]3C(=O)NCC(=O)N3CCC[C@H]3C(=O)NCC(=O)N3CCC[C@H]3C(=O)NCC(=O)N3CCC[C@H]3C(=O)NCC(=O)N3CCC[C@H]3C(=O)NCC(=O)N3CCC[C@H]3C(=O)NCC(=O)N3CCC[C@H]3C(=O)NCC(=O)N3CCC[C@H]3C(=O)O)cccc12,change of fluorescence spectrum on addition of Kapβ2,"[1]; 400-700 nm, excitation 340 nm",little changed
same,binding to Kapβ2 (conclusion from fluorescence),[1],not
same,change of fluorescence spectrum on addition of MBP-FUS,"[3]; 400-700 nm, excitation 340 nm",hardly changed
same,binding to MBP-FUS (conclusion from fluorescence),"[3]; 520 nm fluorescence intensity, n=3",not
same,change of fluorescence spectrum,[4],did not exhibit substantial changes
same,change of fluorescence spectrum,[5],did not exhibit substantial changes
CN(C)c1cccc2c(S(=O)(=O)NCC(=O)N3CCC[C@H]3C(=O)NCC(=O)N3CCC[C@H]3C(=O)NCC(=O)N3CCC[C@H]3C(=O)NCC(=O)N3CCC[C@H]3C(=O)NCC(=O)N3CCC[C@H]3C(=O)NCC(=O)N3CCC[C@H]3C(=O)NCC(=O)N3CCC[C@H]3C(=O)NCC(=O)N3CCC[C@H]3C(=O)NCC(=O)N3CCC[C@H]3C(=O)NCC(=O)N3CCC[C@H]3C(=O)O)cccc12,binding to Kapβ2 (conclusion from fluorescence),[1],do not
same,change in fluorescence intensity on addition of Kapβ2,[1]; excitation 340 nm,unchanged
